From paper PMC8986778, “Citrullination of glucokinase is linked to autoimmune diabetes” (Nature Communications, 2022)

biological target: T1, DR0401 protein (Homo sapiens, UniProt P01903+P01911, A100K/A169T/F76Y/I96L/K127E/L162R/M171V/N62H/P40V/Q125Y/R42H/S133A/S149N/S66Y/V115G/V209L/W38E); experiment: DR0401 peptide binding competition assay; details: Supplementary Table 2; competition with biotin-HA306-318 0.02 μM; read-out: IC50 (Binding of Predicted Glucokinase Peptides to DR04:01)
T1 construct: made in house; host or cells: insect cell cultures

IC50	SMILES
> 50 µM	CC[C@H](C)[C@H](NC(=O)[C@H](CCC(N)=O)NC(=O)[C@@H](N)CCC(=O)O)C(=O)N[C@@H](CC(C)C)C(=O)N[C@@H](C)C(=O)N[C@@H](CCC(=O)O)C(=O)N[C@@H](Cc1ccccc1)C(=O)N[C@@H](CCC(N)=O)C(=O)N[C@@H](CC(C)C)C(=O)N[C@@H](CCC(N)=O)C(=O)N[C@@H](CCC(=O)O)C(=O)N[C@@H](CCC(=O)O)C(=O)N[C@@H](CC(=O)O)C(=O)N[C@@H](CC(C)C)C(=O)N[C@@H](CCCCN)C(=O)O [GK 17-31]
> 50 µM	CC(C)C[C@H](NC(=O)[C@H](CC(=O)O)NC(=O)[C@H](CC(C)C)NC(=O)[C@H](CO)NC(=O)[C@H](CC(C)C)NC(=O)[C@H](Cc1ccccc1)NC(=O)[C@H](CC(=O)O)NC(=O)CNC(=O)[C@@H](N)C(C)C)C(=O)NCC(=O)NCC(=O)N[C@H](C(=O)N[C@@H](CC(N)=O)C(=O)N[C@@H](Cc1ccccc1)C(=O)N[C@@H](CCCNC(=N)N)C(=O)O)[C@@H](C)O [GK 71-85]
> 50 µM	CC[C@H](C)[C@H](NC(=O)[C@H](CC(=O)O)NC(=O)[C@H](CCC(=O)O)NC(=O)[C@H](Cc1c[nH]cn1)NC(=O)[C@H](CCCNC(=N)N)NC(=O)[C@@H](NC(=O)[C@@H]1CCCN1C(=O)[C@H](Cc1ccccc1)NC(=O)[C@H](CO)NC(=O)[C@H](Cc1ccccc1)NC(=O)[C@@H](NC(=O)[C@H](Cc1ccccc1)NC(=O)CNC(=O)[C@H](CC(C)C)NC(=O)[C@@H]1CCCN1)[C@@H](C)O)C(C)C)C(=O)O [GK 145-159]
> 50 µM	CC(C)[C@H](NC(=O)[C@@H](NC(=O)[C@H](CC(N)=O)NC(=O)[C@H](CC(N)=O)NC(=O)CNC(=O)[C@H](CCC(=O)O)NC(=O)[C@H](C)NC(=O)CNC(=O)[C@H](CO)NC(=O)[C@H](C)NC(=O)[C@H](CCCCN)NC(=O)[C@H](Cc1ccccc1)NC(=O)CNC(=O)[C@H](CCCCN)NC(=O)[C@@H](N)[C@@H](C)O)C(C)C)C(=O)O [GK 168-182]
> 50 µM	CSCC[C@H](NC(=O)[C@H](CCCNC(=N)N)NC(=O)CNC(=O)[C@H](CCC(=O)O)NC(=O)[C@H](CC(=O)O)NC(=O)CNC(=O)[C@H](CCC(=O)O)NC(=O)[C@@H](NC(=O)[C@H](CC(C)C)NC(=O)[C@H](CCC(=O)O)NC(=O)[C@@H](NC(=O)[C@@H](N)CC(N)=O)C(C)C)C(C)C)C(=O)N[C@@H](CS)C(=O)N[C@H](C(=O)N[C@@H](CC(N)=O)C(=O)O)C(C)C [GK 240-254]
> 50 µM	CSCC[C@H](NC(=O)[C@H](CCCNC(=N)N)NC(=O)CNC(=O)[C@@H](N)CCC(=O)O)C(=O)N[C@@H](CS)C(=O)N[C@H](C(=O)N[C@@H](CC(N)=O)C(=O)N[C@H](C(=O)N[C@@H](CCC(=O)O)C(=O)N[C@@H](Cc1c[nH]c2ccccc12)C(=O)NCC(=O)N[C@@H](C)C(=O)N[C@@H](Cc1ccccc1)C(=O)NCC(=O)N[C@@H](CC(=O)O)C(=O)O)[C@@H](C)O)C(C)C [GK 248-262]
> 50 µM	CSCC[C@H](NC(=O)[C@@H](N)CCCNC(=N)N)C(=O)N[C@@H](CS)C(=O)N[C@H](C(=O)N[C@@H](CC(N)=O)C(=O)N[C@H](C(=O)N[C@@H](CCC(=O)O)C(=O)N[C@@H](Cc1c[nH]c2ccccc12)C(=O)NCC(=O)N[C@@H](C)C(=O)N[C@@H](Cc1ccccc1)C(=O)NCC(=O)N[C@@H](CC(=O)O)C(=O)N[C@@H](CO)C(=O)NCC(=O)O)[C@@H](C)O)C(C)C [GK 250-264]
> 50 µM	CC(C)C[C@H](NC(=O)[C@H](CCC(=O)O)NC(=O)CNC(=O)[C@H](CO)NC(=O)[C@H](CC(=O)O)NC(=O)CNC(=O)[C@H](Cc1ccccc1)NC(=O)[C@H](C)NC(=O)CNC(=O)[C@H](Cc1c[nH]c2ccccc12)NC(=O)[C@H](CCC(=O)O)NC(=O)[C@@H](NC(=O)[C@@H](N)CC(N)=O)[C@@H](C)O)C(=O)N[C@@H](CC(=O)O)C(=O)N[C@@H](CCC(=O)O)C(=O)O [GK 254-268]
> 50 µM	CC(C)C[C@H](NC(=O)[C@H](CC(C)C)NC(=O)[C@H](Cc1ccccc1)NC(=O)[C@H](CCC(=O)O)NC(=O)[C@H](CC(=O)O)NC(=O)[C@H](CC(C)C)NC(=O)[C@H](CCC(=O)O)NC(=O)CNC(=O)[C@H](CO)NC(=O)[C@H](CC(=O)O)NC(=O)CNC(=O)[C@H](Cc1ccccc1)NC(=O)[C@H](C)NC(=O)CNC(=O)[C@@H](N)Cc1c[nH]c2ccccc12)C(=O)O [GK 257-271]
> 50 µM	CC(C)C[C@H](NC(=O)[C@H](CCC(N)=O)NC(=O)[C@H](CCC(N)=O)NC(=O)CNC(=O)[C@@H]1CCCN1C(=O)[C@H](CC(N)=O)NC(=O)[C@H](C)NC(=O)[C@H](CO)NC(=O)[C@H](CO)NC(=O)[C@H](CCC(=O)O)NC(=O)[C@H](CC(=O)O)NC(=O)[C@@H](NC(=O)[C@H](CC(C)C)NC(=O)[C@H](CCCNC(=N)N)NC(=O)[C@@H](N)CC(=O)O)C(C)C)C(=O)O [GK 274-288]
> 50 µM	CC[C@H](C)[C@H](NC(=O)[C@H](CC(C)C)NC(=O)[C@H](CCCCN)NC(=O)[C@H](CCC(=O)O)NC(=O)[C@H](Cc1ccc(O)cc1)NC(=O)[C@H](CC(C)C)NC(=O)[C@H](CCC(N)=O)NC(=O)[C@@H](N)CCC(N)=O)C(=O)NCC(=O)NCC(=O)N[C@@H](CCCCN)C(=O)N[C@@H](Cc1ccc(O)cc1)C(=O)N[C@@H](CCSC)C(=O)NCC(=O)N[C@@H](CCC(=O)O)C(=O)O [GK 286-300]
> 50 µM	CC(C)C[C@H](NC(=O)[C@H](CC(C)C)NC(=O)[C@H](CC(N)=O)NC(=O)[C@H](CCC(=O)O)NC(=O)[C@H](CC(=O)O)NC(=O)[C@@H](NC(=O)[C@H](CC(C)C)NC(=O)[C@H](CCCNC(=N)N)NC(=O)[C@H](CC(C)C)NC(=O)[C@@H](N)CC(C)C)C(C)C)C(=O)N[C@@H](Cc1ccccc1)C(=O)N[C@@H](Cc1c[nH]cn1)C(=O)NCC(=O)N[C@@H](CCC(=O)O)C(=O)N[C@@H](C)C(=O)O [GK 306-320]
